Assay results as given in ChEMBL document CHEMBL1155432 (Bioorg Med Chem Lett, 2010).

Target: T1, Macrophage migration inhibitory factor (Homo sapiens, UniProt P14174)
T1 sequence (P14174 whole entry): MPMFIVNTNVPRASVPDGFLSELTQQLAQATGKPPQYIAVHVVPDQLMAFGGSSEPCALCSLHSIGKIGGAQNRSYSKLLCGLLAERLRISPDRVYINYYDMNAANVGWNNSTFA
Assay: Inhibition of MIF

**Q.** How did the IC50 turn out when `O=c1c(-c2ccc(O)c(O)c2)coc2ccccc12` was run?
**A.** 38 nM
